Assay [1] relates to insulin-stimulated glycogen synthesis in soleus muscle. The assay is described as follows: Soleus muscle assay (inhibition of insulin-stimulated glycogen synthesis). It is filed as cell-based, rat. The method, then:
Concentrations of peptide dissolved in carrier-free buffers are determined by quantitative amino acid analysis, as described therein. The ability of compounds to act as agonists in this assay is determined by measuring EC50 values. […] Similar results were obtained with other agonist compounds listed above.

The target in another assay is T1, amylin receptors (Rattus norvegicus, UniProt P32214).
T1 construct: This basal forebrain tissue, containing the nucleus accumbens and surrounding regions, was weighed and homogenized; from tissue; host or cells: rat basal forebrain (nucleus accumbens and surrounding regions) membranes
T1 sequence (P32214 25-516): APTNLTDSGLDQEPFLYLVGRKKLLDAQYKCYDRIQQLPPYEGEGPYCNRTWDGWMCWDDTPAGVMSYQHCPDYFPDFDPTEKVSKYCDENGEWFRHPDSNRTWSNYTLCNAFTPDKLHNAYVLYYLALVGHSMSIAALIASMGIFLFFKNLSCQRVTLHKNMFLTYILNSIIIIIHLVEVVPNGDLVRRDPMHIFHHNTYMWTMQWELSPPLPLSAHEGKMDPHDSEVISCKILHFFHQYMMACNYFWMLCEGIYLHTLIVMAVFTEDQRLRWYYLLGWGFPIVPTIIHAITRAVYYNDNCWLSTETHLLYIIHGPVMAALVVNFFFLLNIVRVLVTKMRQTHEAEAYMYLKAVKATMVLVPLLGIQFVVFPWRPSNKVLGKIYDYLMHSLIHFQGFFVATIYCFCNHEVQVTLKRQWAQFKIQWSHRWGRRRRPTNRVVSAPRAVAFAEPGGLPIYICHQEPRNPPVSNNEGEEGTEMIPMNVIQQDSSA
The assay is described as follows: Receptor binding assay (competition with 125I Bolton-Hunter rat amylin). An excerpt:
A preferred source of the membrane preparations used in the assay is the basal foregrain which comprises membranes from the nucleus accumbens and surrounding regions.
Unlabeled peptides were obtained from BACHEM Inc. (Torrance, Calif.) and Peninsula Laboratories (Belmont, Calif.).
Male Sprague-Dawley rats (200-250) grams were sacrificed by decapitation. Brains were removed to cold phosphate-buffered saline (PBS). From the ventral surface, cuts were made rostral to the hypothalamus, bounded laterally by the olfactory tracts and extending at a 45° angle medially from these tracts. This basal forebrain tissue, containing the nucleus accumbens and surrounding regions, was weighed and homogenized in ice-cold 20 mM HEPES buffer (20 mM HEPS acid, pH adjusted to 7.4 with NaOH at 23° C.). […] The final membrane pellet was resuspended in 20 nM HEPES buffer containing 0.2 mM phenylmethylsulfonyl fluoride (PMSF).
Solutions were incubated for 60 minutes at 23° C. […] Filters were washed immediately before filtration with 5 ml cold PBS, and immediately after filtration with 15 ml cold PBS.

With `CC[C@H](C)[C@H](NC(=O)[C@H](C)NC(=O)CNC(=O)[C@H](Cc1ccccc1)NC(=O)[C@H](CC(N)=O)NC(=O)[C@H](CC(N)=O)NC(=O)[C@H](CO)NC(=O)[C@H](CO)NC(=O)[C@H](Cc1c[nH]cn1)NC(=O)[C@@H](NC(=O)[C@H](CC(C)C)NC(=O)[C@H](Cc1ccccc1)NC(=O)[C@H](CC(N)=O)NC(=O)[C@H](C)NC(=O)[C@H](CC(C)C)NC(=O)[C@H](CCCNC(=N)N)NC(=O)[C@H](CCC(N)=O)NC(=O)[C@@H](NC(=O)[C@H](C)NC(=O)[C@@H]1CSSC[C@H](NC(=O)[C@@H](N)CO)C(=O)N[C@@H](CC(N)=O)C(=O)N[C@@H]([C@@H](C)O)C(=O)N[C@@H](C)C(=O)N[C@@H]([C@@H](C)O)C(=O)N1)[C@@H](C)O)C(C)C)C(=O)N[C@@H](CC(C)C)C(=O)N[C@@H](CO)C(=O)N[C@@H](CO)C(=O)N[C@H](C(=O)N[C@@H](CC(N)=O)C(=O)N[C@H](C(=O)NCC(=O)N[C@@H](CO)C(=O)N[C@@H](CC(N)=O)C(=O)N[C@H](C(=O)N[C@@H](Cc1ccc(O)cc1)C(N)=O)[C@@H](C)O)C(C)C)[C@@H](C)O` [^1Ser-h-Amylin], in assay [1], the EC50 – broadly, the concentration giving half of the maximal effect – was 8.7 nM.

Compound `CC[C@H](C)[C@H](NC(=O)[C@H](C)NC(=O)CNC(=O)[C@H](Cc1ccccc1)NC(=O)[C@H](CC(N)=O)NC(=O)[C@H](CC(N)=O)NC(=O)[C@H](CO)NC(=O)[C@H](CO)NC(=O)[C@H](Cc1c[nH]cn1)NC(=O)[C@@H](NC(=O)[C@H](CC(C)C)NC(=O)[C@H](Cc1ccccc1)NC(=O)[C@H](CC(N)=O)NC(=O)[C@H](C)NC(=O)[C@H](CC(C)C)NC(=O)[C@H](CCCNC(=N)N)NC(=O)[C@H](CCC(N)=O)NC(=O)[C@@H](NC(=O)[C@H](C)NC(=O)[C@@H]1CSSC[C@H](NC(=O)[C@@H](N)CCCCN)C(=O)N[C@@H](CC(N)=O)C(=O)N[C@@H]([C@@H](C)O)C(=O)N[C@@H](C)C(=O)N[C@@H]([C@@H](C)O)C(=O)N1)[C@@H](C)O)C(C)C)C(=O)N[C@@H](CC(C)C)C(=O)N[C@@H](CO)C(=O)N1CCC[C@H]1C(=O)N[C@H](C(=O)N[C@@H](CC(N)=O)C(=O)N[C@H](C(=O)NCC(=O)N[C@@H](CO)C(=O)N[C@@H](CC(N)=O)C(=O)N[C@H](C(=O)N[C@@H](Cc1ccc(O)cc1)C(N)=O)[C@@H](C)O)C(C)C)[C@@H](C)O` [^29Pro-h-Amylin] had an EC50 in assay [1] of 3.75 nM. This EC50 is about 2.3-fold lower than that of the compound before.

For `CC[C@H](C)[C@H](NC(=O)[C@H](C)NC(=O)CNC(=O)[C@H](Cc1ccccc1)NC(=O)[C@H](CC(N)=O)NC(=O)[C@H](CC(N)=O)NC(=O)[C@H](CO)NC(=O)[C@H](CO)NC(=O)[C@H](Cc1c[nH]cn1)NC(=O)[C@@H](NC(=O)[C@H](CC(C)C)NC(=O)[C@H](Cc1ccccc1)NC(=O)[C@H](CC(N)=O)NC(=O)[C@H](C)NC(=O)[C@H](CC(C)C)NC(=O)[C@H](CCCNC(=N)N)NC(=O)[C@H](CCC(N)=O)NC(=O)[C@@H](NC(=O)[C@H](C)NC(=O)[C@@H]1CSSC[C@H](NC(=O)[C@H](C)N)C(=O)N[C@@H](CC(N)=O)C(=O)N[C@@H]([C@@H](C)O)C(=O)N[C@@H](C)C(=O)N[C@@H]([C@@H](C)O)C(=O)N1)[C@@H](C)O)C(C)C)C(=O)N[C@@H](CC(C)C)C(=O)N[C@@H](CO)C(=O)N[C@@H](CO)C(=O)N[C@H](C(=O)N[C@@H](CC(N)=O)C(=O)N[C@H](C(=O)NCC(=O)N[C@@H](CO)C(=O)N[C@@H](CC(N)=O)C(=O)N[C@H](C(=O)N[C@@H](Cc1ccc(O)cc1)C(N)=O)[C@@H](C)O)C(C)C)[C@@H](C)O` [^1Ala-h-Amylin], the EC50 in assay [1] stood at 12.8 nM. Compared with the last compound, the EC50 is about 3.4-fold higher.

In the case of `CC(C)C[C@H](NC(=O)[C@H](CCCNC(=N)N)NC(=O)[C@H](CCC(N)=O)NC(=O)[C@@H](NC(=O)[C@H](C)NC(=O)[C@@H]1CSSC[C@H](NC(=O)[C@@H](N)CCCCN)C(=O)N[C@@H](CC(N)=O)C(=O)N[C@@H]([C@@H](C)O)C(=O)N[C@@H](C)C(=O)N[C@@H]([C@@H](C)O)C(=O)N1)[C@@H](C)O)C(=O)N[C@@H](C)C(=O)N[C@@H](CC(N)=O)C(=O)N[C@@H](Cc1ccccc1)C(=O)N[C@@H](CC(C)C)C(=O)N[C@H](C(=O)N[C@@H](Cc1c[nH]cn1)C(=O)N[C@@H](CO)C(=O)N[C@@H](CO)C(=O)N[C@@H](CC(N)=O)C(=O)N[C@@H](CC(N)=O)C(=O)N[C@@H](Cc1ccccc1)C(=O)NCC(=O)N1CCC[C@H]1C(=O)N[C@H](C(=O)N[C@@H](CC(C)C)C(=O)N1CCC[C@H]1C(=O)N1CCC[C@H]1C(=O)N[C@H](C(=O)N[C@@H](CC(N)=O)C(=O)N[C@H](C(=O)NCC(=O)N[C@@H](CO)C(=O)N[C@@H](CC(N)=O)C(=O)N[C@H](C(=O)N[C@@H](Cc1ccc(O)cc1)C(N)=O)[C@@H](C)O)C(C)C)[C@@H](C)O)C(C)C)C(C)C` [^25Pro^26Val^28,29Pro-h-Amylin], the “Competition with amylin / receptor binding activity (in words)” value at amylin receptors is “compete with amylin”. Besides, the EC50 in assay [1] worked out at 4.68 nM.

`CC[C@H](C)[C@H](NC(=O)[C@@H]1CCCN1C(=O)CNC(=O)[C@H](Cc1ccccc1)NC(=O)[C@H](CC(N)=O)NC(=O)[C@H](CC(N)=O)NC(=O)[C@H](CO)NC(=O)[C@H](CO)NC(=O)[C@H](Cc1c[nH]cn1)NC(=O)[C@@H](NC(=O)[C@H](CC(C)C)NC(=O)[C@H](Cc1ccccc1)NC(=O)[C@H](CC(N)=O)NC(=O)[C@H](C)NC(=O)[C@H](CC(C)C)NC(=O)[C@H](CCCNC(=N)N)NC(=O)[C@H](CCC(N)=O)NC(=O)[C@@H](NC(=O)[C@H](C)NC(=O)[C@@H]1CSSC[C@H](N)C(=O)N[C@@H](CC(N)=O)C(=O)N[C@@H]([C@@H](C)O)C(=O)N[C@@H](C)C(=O)N[C@@H]([C@@H](C)O)C(=O)N1)[C@@H](C)O)C(C)C)C(=O)N[C@@H](CC(C)C)C(=O)N1CCC[C@H]1C(=O)N[C@@H](CO)C(=O)N[C@H](C(=O)N[C@@H](CC(N)=O)C(=O)N[C@H](C(=O)NCC(=O)N[C@@H](CO)C(=O)N[C@@H](CC(N)=O)C(=O)N[C@H](C(=O)N[C@@H](Cc1ccc(O)cc1)C(N)=O)[C@@H](C)O)C(C)C)[C@@H](C)O` [des-^1Lys^25,28Pro-h-Amylin] showed an EC50 in assay [1] of 7.7 nM. This lies in the single-digit nanomolar range.

`CC[C@H](C)[C@H](NC(=O)[C@@H]1CCCN1C(=O)CNC(=O)[C@H](Cc1ccccc1)NC(=O)[C@H](CC(N)=O)NC(=O)[C@H](CC(N)=O)NC(=O)[C@H](CO)NC(=O)[C@H](CO)NC(=O)[C@H](Cc1c[nH]cn1)NC(=O)[C@@H](NC(=O)[C@H](CC(C)C)NC(=O)[C@H](Cc1ccccc1)NC(=O)[C@H](CC(N)=O)NC(=O)[C@H](C)NC(=O)[C@H](CC(C)C)NC(=O)[C@H](CCCNC(=N)N)NC(=O)[C@H](CCC(N)=O)NC(=O)[C@@H](NC(=O)[C@H](C)NC(=O)[C@@H]1CSSC[C@H](N)C(=O)N[C@@H](CC(N)=O)C(=O)N[C@@H]([C@@H](C)O)C(=O)N[C@@H](C)C(=O)N[C@@H]([C@@H](C)O)C(=O)N1)[C@@H](C)O)C(C)C)C(=O)N[C@@H](CC(C)C)C(=O)N1CCC[C@H]1C(=O)N1CCC[C@H]1C(=O)N[C@H](C(=O)N[C@@H](CC(N)=O)C(=O)N[C@H](C(=O)NCC(=O)N[C@@H](CO)C(=O)N[C@@H](CC(N)=O)C(=O)N[C@H](C(=O)N[C@@H](Cc1ccc(O)cc1)C(N)=O)[C@@H](C)O)C(C)C)[C@@H](C)O` [des-^1Lys^25,28,29Pro-h-Amylin]: the “Competition with amylin / receptor binding activity (in words)” value on amylin receptors is “compete with amylin”. The response in assay [1] was half-maximal at 4.15 nM (EC50).

`CC[C@H](C)[C@H](NC(=O)[C@@H]1CCCN1C(=O)CNC(=O)[C@H](Cc1ccccc1)NC(=O)[C@H](CC(N)=O)NC(=O)[C@H](CC(N)=O)NC(=O)[C@H](CO)NC(=O)[C@H](CO)NC(=O)[C@H](Cc1c[nH]cn1)NC(=O)[C@@H](NC(=O)[C@H](CC(C)C)NC(=O)[C@H](Cc1ccccc1)NC(=O)[C@H](CC(N)=O)NC(=O)[C@H](C)NC(=O)[C@H](CC(C)C)NC(=O)[C@H](CCCNC(=N)N)NC(=O)[C@H](CCC(N)=O)NC(=O)[C@@H](NC(=O)[C@H](C)NC(=O)[C@@H]1CSSC[C@H](NC(=O)[C@@H](N)CCCCN)C(=O)N[C@@H](CC(N)=O)C(=O)N[C@@H]([C@@H](C)O)C(=O)N[C@@H](C)C(=O)N[C@@H]([C@@H](C)O)C(=O)N1)[C@@H](C)O)C(C)C)C(=O)N[C@@H](CC(C)C)C(=O)N1CCC[C@H]1C(=O)N[C@@H](CO)C(=O)N[C@H](C(=O)N[C@@H](CC(N)=O)C(=O)N[C@H](C(=O)NCC(=O)N[C@@H](CO)C(=O)N[C@@H](CC(N)=O)C(=O)N[C@H](C(=O)N[C@@H](Cc1ccc(O)cc1)C(N)=O)[C@@H](C)O)C(C)C)[C@@H](C)O` [^25,28Pro-h-Amylin] showed an EC50 in assay [1] of 13.2 nM. This counts as double-digit nanomolar.

The values above are taken from US7407934B2, “Methods for regulating postprandial blood glucose” (Amylin Pharmaceuticals, Inc., priority 1993, dated 2008).
